{
  "source": "paper PMC7052193",
  "about": "“Nanobody-enabled monitoring of kappa opioid receptor states” (Nature Communications, 2020)",
  "target": "human KOR (Homo sapiens, UniProt P41145, D266A)",
  "test": "BRET assay, KOR-Rluc and Nb6-mVenus: Nb6 binding / agonist-induced dissociation",
  "assay_type": "cell-based",
  "note": "“And” between values parts separate entries of the source, which are not always exact repeats. Equal values may be shown once.",
  "data": [
    {"molecule": "Nb6-mVenus (VHH, as the chain of m2, nanobody chain of PDB 6VI4; source: HEK 293T, co-transfected, in live cells; not shown: mVenus, C-terminal, kept) VHH: QVQLQESGGGLVQAGESLRLSCAASGTIFRLYDMGWYRRVSGNQRELVASITSGGSTKYGDSVKGRFTISRDNAKNTVYLQMSSLKPEDTAVYYCNAEYRTGIWEELLDGWGQGTQVTVSS", "values": [
      {"measurement": "Net BRET, KOR mutations with Nb6, source data Figure 3b", "result": "0.1115 and 0.1134"}
    ]}
  ]
}
